Key:
LNCaP cells = test: PARP cleavage in LNCaP cells; conditions: tested form: diammonium salt (as drawn, CO2NH4)
Experimental: (§1) FIG. 6 is a series of images illustrating BH3-M6 induces apoptosis in a Bcl-2-, Bcl-XL-, and Mcl-1-dependent manner. BH3-M6 induces caspase-3/-7 activities and apoptosis in Bcl-XL/Bim, Bcl-2/Bim and Mcl-1/Bim overexpressing cells. MDA-MB-468 cells transfected with Bcl-XL-IRES-BimEL, Bcl-2-IRES-BimEL, and Mcl-1-IRES-BimEL were grown in 100-mm plates and treated with 0, 25, 50, or 100 μM BH3-M6 or 100 μM of TPC for 24 h at 37° C. Cells were then harvested and lysed using 0.2% NP-40 lysis buffer (without protease and phosphatase inhibitors for cell-free caspase assay and with protease and phosphatase inhibitors for Western blot analysis). (A) Caspase-3/-7 activity was determined by incubating whole-cell extracts with caspase-3/-7 substrate and measuring free AMCs (left panel), apoptosis was quantified by TUNEL assay (middle panel), gray: TPC, black: BH3-M6. BimEL, Bcl-XL, Bcl-2 and Mcl-1 expression levels were determined by Western blotting (right panel). (B) PARP cleavage by Western blotting. (C) Expression levels of different anti- and pro-apoptotic proteins in DU-145 and LNCaP cells as determined by Western blotting. (D) BH3-M6 induces apoptosis in LNCaP human prostate cancer cells expressing Bax, but not in DU-145 human prostate cancer cells lacking detectable Bax expression. LNCaP and DU-145 cells were treated with 0, 25 and 50 μM of BH3-M6 or 50 μM of TPC for 24 h. Cells were lysed and subjected to Western blot analysis. (E) Depletion of Bax, but not Bak by siRNA renders LNCaP cells resistant to apoptosis. LNCaP cells were transfected with 10 nM Bax or Bak siRNA or control siRNA for 48 h, followed by 24 h treatment with or without 25 or 50 μM BH3-M6. Cells were lysed and subjected to Western blot analysis with the indicated antibodies.
Bax and Bak expression levels were silenced by siRNA using a transfection protocol previously described by the inventors and incorporated herein by reference. […]

[1] = test system: MDA-MB-468 cells expressing Bcl-XL/Bim, Bcl-2/Bim, Mcl-1/Bim; test: Caspase-3/-7, TUNEL and PARP cleavage in MDA-MB-468 cells expressing Bcl-XL/Bim, Bcl-2/Bim, Mcl-1/Bim; conditions: 24 h, tested form: diammonium salt (as drawn, CO2NH4)
Experimental: as §1
Release of cytochrome c from isolated mitochondria was measured as described by Takahashi et al. (Takahashi, Y., Karbowski, M., Yamaguchi, H., Kazi, A., Wu, J., Sebti, S. M., Youle, R. J., and Wang, H. G. (2005) Mol Cell Biol 25, 9369-9382) Cell-free caspase-3/-7 activity and the extent of PARP cleavage was determined as described previously. […]

## CC(C)Cc1cc(-c2ccc(-c3ccc(CCC(=O)O)cc3CC(C)C)cc2Cc2ccccc2)ccc1OCC(=O)O
LNCaP cells; LNCaP (high Bax), 25 and 50 μM BH3-M6 or 50 μM TPC, 24 h
  PARP cleavage: induced PARP cleavage in LNCaP cells
LNCaP cells; LNCaP, 10 nM Bak siRNA 48 h, then 24 h treatment
  BH3-M6-induced PARP cleavage after Bak siRNA silencing: but not Bak
LNCaP cells; LNCaP, 10 nM Bax siRNA 48 h, then 24 h treatment
  BH3-M6-induced PARP cleavage after Bax siRNA silencing: prevented
[1]
  apoptosis induction by TUNEL assay: 7 to 12 fold
  apoptosis induction by caspase-3/-7 activation assay: 8- to 10 fold
[1]; three cell lines
  PARP cleavage: induced PARP cleavage

Source: patent publication US20130295185A1, “COMPOUNDS AND METHODS FOR INDUCING APOPTOSIS IN CANCER CELLS USING A BH3 ALPHA-HELICAL MIMETIC” (H. Lee Moffitt Cancer Center and Research Institute, Inc., priority 2011, published 2013)
